Results on 1 compound are retold here after publication PMC9873282, “Design, synthesis and evaluation of quinoline-O-carbamate derivatives as multifunctional agents for the treatment of Alzheimer’s disease” (Journal of Enzyme Inhibition and Medicinal Chemistry, 2023).

By UniProt entry, the sequences of proteins in these tests, tags left out. Residues count along the entry.
UniProt P06276, 29-602: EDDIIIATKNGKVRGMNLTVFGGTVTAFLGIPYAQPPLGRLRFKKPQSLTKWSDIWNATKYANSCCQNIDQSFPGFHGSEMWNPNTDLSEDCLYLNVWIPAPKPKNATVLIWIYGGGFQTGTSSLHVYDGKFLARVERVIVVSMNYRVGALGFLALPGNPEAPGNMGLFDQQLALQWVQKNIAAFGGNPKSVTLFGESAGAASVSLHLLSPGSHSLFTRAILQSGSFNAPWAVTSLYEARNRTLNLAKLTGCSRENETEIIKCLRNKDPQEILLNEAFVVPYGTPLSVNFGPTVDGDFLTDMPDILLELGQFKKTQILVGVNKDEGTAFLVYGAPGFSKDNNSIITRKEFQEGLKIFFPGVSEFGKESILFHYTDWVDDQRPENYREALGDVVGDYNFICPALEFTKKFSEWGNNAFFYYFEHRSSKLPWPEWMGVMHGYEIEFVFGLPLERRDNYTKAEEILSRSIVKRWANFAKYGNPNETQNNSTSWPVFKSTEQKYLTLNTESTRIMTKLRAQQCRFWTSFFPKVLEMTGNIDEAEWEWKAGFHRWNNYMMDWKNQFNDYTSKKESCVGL

Molecules are shown by their SMILES.

This assay concerns the target T1, hBuChE (Homo sapiens, UniProt P06276).
T1 construct: hBuChE, human serum BuChE; purchased Sigma Aldrich; host or cells: human serum (natural source)
In words: biochemical. The note with it: IC50 ± SD hBuChE. On the procedure: Acetylcholinesterase (eeAChE, from the electric eel; hAChE, from human erythrocytes AChE), butyrylcholinesterase (eqBuChE, from equine serum; hBuChE, human serum BuChE), 5,5′-dithiobis-2-nitrobenzoic acid (Ellman’s reagent, DTNB), acetylthiocholine chloride (ATC), and butyrylthiocholine chloride (BTC) were purchased form Sigma Aldrich. The determination of AChE and BuChE inhibitory potency of the synthesised compounds were evaluated by Ellman assay, the detailed procedure referred to our previous work[26]^,[27].

A word on the IC50: it is the concentration that inhibits the measured activity by half. A lower IC50 goes with higher potency. With `CCN(C)C(=O)Oc1cccc([C@H](C)N(C)C)c1` [Rivastigmine, reference compound], it took 2800 ± 520 nM to reach half-maximal inhibition (IC50).
